Reference: the CATMoS acute toxicity set (Mansouri et al. 2021)

Experiment: rat acute oral toxicity
Conditions: in vivo

N#CC(C#N)=Cc1ccccc1Cl
LD50: 178 mg/kg

Some tests of the compounds listed are not included; inactive here does not mean inactive elsewhere.
